# Binding of CDR-mutated scFvs to a peptide of the spike HR2 region

The measurements come from Li et al. 2023 (doi:10.1038/s41467-023-39022-2) through the FLAb antibody collection.

All variants were tested on one target, the spike HR2 peptide PDVDLGDISGINAS (SARS-CoV-2).

The variants keep the heavy chain, the linker and the frameworks of Ab-14 (scFv order VH, a 15-residue (Gly4Ser)3 linker, VL).
VH: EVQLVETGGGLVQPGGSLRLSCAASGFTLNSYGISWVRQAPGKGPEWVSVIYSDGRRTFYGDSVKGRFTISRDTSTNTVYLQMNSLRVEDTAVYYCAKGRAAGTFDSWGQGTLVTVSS
VL: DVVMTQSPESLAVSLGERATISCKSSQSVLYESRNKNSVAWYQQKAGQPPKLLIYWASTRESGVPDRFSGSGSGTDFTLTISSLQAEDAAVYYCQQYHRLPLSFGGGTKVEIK

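The starting antibody came from a phage panning campaign against this peptide. The variants were designed computationally from a first round of random CDR variants and then made and measured. Group labels follow the data file (Ctrl: baseline library sampled from a position-specific scoring matrix, with some repeated check sequences; Rand: our label for a block that the file lists under HC and that is probably the random mutants of the ten best first-round binders). The assay is AlphaSeq: two haploid yeast populations carry antibody and antigen on their surface. The frequency of each diploid, read from paired DNA barcodes, reflects how well the two displayed proteins bind. Each replicate has its own calibration line, from reference interactions of the BCL2 family. There are six technical replicates.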

The parent's light chain CDRs are KSSQSVLYESRNKNSVA, WASTRES, QQYHRLPLS; each variant's own CDRs replace them letter for letter.
The read-out is the apparent dissociation constant on a log10 scale (nM): the lower, the stronger.
Where no diploid with the target was found in that replicate, the entry reads "nd": below detection, most likely a poor binder, though not proof of it.
Of ten entries with the parent sequence, four were seen in most replicates (averages 0.34 to 2.37), three in one and three in none, so single entries are noisy.
Some sequences occur more than once in the pool; their replicates are listed entry by entry, parted by semicolons.
Values of this round are not directly comparable with the first-round values of the same sequences.
Background: pairings of all light chain designs with three empty control strains gave a value in 4% of cases (median 2.64, 5th percentile 1.59). Values in that range, when seen in few replicates, are hard to tell from nonspecific mating. Also given: how often the same scFv was detected with the empty control strains, with their mean in brackets.
The authors averaged sequences with at least three values out of six and counted those with two or fewer as poor binders.

{"CDR-L1": "KSSQSVLYESRNKWSVA", "CDR-L2": "WASTRES", "CDR-L3": "QQYHRLPLS", "group": "Ctrl", "log10 Kd (nM) by replicate": "nd nd nd nd 2.33 nd", "empty controls": "0/18"}
{"CDR-L1": "KYSQSVGYESRNKNSVA", "CDR-L2": "WASTRES", "CDR-L3": "QQYHRYPLS", "group": "Ctrl", "log10 Kd (nM) by replicate": "nd nd nd nd nd nd", "empty controls": "0/18"}
{"CDR-L1": "KTSISVLYNSRNKNGVA", "CDR-L2": "WASTRES", "CDR-L3": "QQYHRLPLS", "group": "Ctrl", "log10 Kd (nM) by replicate": "nd nd nd nd nd nd", "empty controls": "0/18"}
{"CDR-L1": "KSSQSVLYLSGNKNSVA", "CDR-L2": "DASTREA", "CDR-L3": "QQYHRLPLS", "group": "Ctrl", "log10 Kd (nM) by replicate": "0.24 0.33 0.52 -0.23 -0.12 0.06", "empty controls": "0/18"}
{"CDR-L1": "MNSQSVEYESTNKNSVA", "CDR-L2": "WASTRES", "CDR-L3": "QQYHRLPFS", "group": "Ctrl", "log10 Kd (nM) by replicate": "nd 1.74 4.08 nd nd 2.41", "empty controls": "1/18 (1.92)"}
{"CDR-L1": "KSSQSVLFESRNKNSVA", "CDR-L2": "WASTRES", "CDR-L3": "QQYHRLPLS", "group": "Ctrl+Rand", "log10 Kd (nM) by replicate": "nd nd nd nd nd nd; 2.23 2.68 2.26 3.34 1.46 2.35", "empty controls": "1/36 (2.51)"}
{"CDR-L1": "KSSQSVLHMSLNKNSVA", "CDR-L2": "WASTRVS", "CDR-L3": "QQYHRLPLS", "group": "Ctrl", "log10 Kd (nM) by replicate": "1.88 1.21 1.77 2.27 1.38 1.75", "empty controls": "0/18"}
{"CDR-L1": "KSSQSVGEESMNQNSVA", "CDR-L2": "TASTRES", "CDR-L3": "QQYHRLPLS", "group": "Ctrl", "log10 Kd (nM) by replicate": "nd 0.29 -0.31 -0.12 -0.48 -0.32", "empty controls": "0/18"}
{"CDR-L1": "KSSQSVLYEWRNKNSVA", "CDR-L2": "QSSTRET", "CDR-L3": "QQYHRLPTS", "group": "Ctrl", "log10 Kd (nM) by replicate": "nd nd nd nd nd nd", "empty controls": "1/18 (2.42)"}
{"CDR-L1": "KSSQSVLYESRNKNSVA", "CDR-L2": "NASTRES", "CDR-L3": "QQYHRLPIW", "group": "Ctrl", "log10 Kd (nM) by replicate": "0.80 0.66 0.71 0.65 0.97 0.89", "empty controls": "1/18 (3.44)"}
{"CDR-L1": "KMSQSVLYESRNKNSVA", "CDR-L2": "WAMTRES", "CDR-L3": "QQTHRLPLS", "group": "Ctrl", "log10 Kd (nM) by replicate": "nd nd nd nd nd nd", "empty controls": "0/18"}
{"CDR-L1": "KSQQSVLYESRNKNSVA", "CDR-L2": "GASTRES", "CDR-L3": "QQYHRLPLS", "group": "Ctrl", "log10 Kd (nM) by replicate": "0.69 0.92 0.58 0.69 0.95 0.93", "empty controls": "3/18 (2.57)"}
{"CDR-L1": "RSQQSFLYESRNKNAVA", "CDR-L2": "WASTRES", "CDR-L3": "QQYHRLPLS", "group": "Ctrl", "log10 Kd (nM) by replicate": "1.57 nd 1.96 2.05 0.83 2.05", "empty controls": "0/18"}
{"CDR-L1": "KLSQSVIYESRNKNSVA", "CDR-L2": "WASTRES", "CDR-L3": "QQYHRLPLS", "group": "Ctrl", "log10 Kd (nM) by replicate": "0.46 0.30 0.36 0.23 0.00 -0.21", "empty controls": "1/18 (2.45)"}
{"CDR-L1": "ESSQSSLYESRNKNSVA", "CDR-L2": "YASTRES", "CDR-L3": "QQYHRLPLS", "group": "Ctrl", "log10 Kd (nM) by replicate": "1.81 2.12 1.45 1.85 1.74 2.35", "empty controls": "2/18 (2.19)"}
{"CDR-L1": "KSSQSVLYYSRNKNSVA", "CDR-L2": "AASTRYS", "CDR-L3": "QQYHRLPLS", "group": "Ctrl", "log10 Kd (nM) by replicate": "nd nd nd 3.43 1.30 2.61", "empty controls": "0/18"}
{"CDR-L1": "KQSQMVEYESRNLNSVA", "CDR-L2": "WAKTREH", "CDR-L3": "QQYHRLKLS", "group": "Ctrl", "log10 Kd (nM) by replicate": "nd nd nd nd nd nd", "empty controls": "0/18"}
{"CDR-L1": "KSSQSQLDESRNKNSVA", "CDR-L2": "WATTRES", "CDR-L3": "QQPHRLPLS", "group": "Ctrl", "log10 Kd (nM) by replicate": "nd nd nd nd nd nd", "empty controls": "0/18"}
{"CDR-L1": "KSSQSNLNEDRNKNSVA", "CDR-L2": "SASTRES", "CDR-L3": "QQYHRLPLS", "group": "Ctrl", "log10 Kd (nM) by replicate": "1.13 -0.03 1.02 0.51 0.19 0.48", "empty controls": "0/18"}
{"CDR-L1": "KSSQSVLEESRNKNSVA", "CDR-L2": "WAVTRES", "CDR-L3": "QQYHRLPLS", "group": "Ctrl", "log10 Kd (nM) by replicate": "1.53 2.15 0.58 1.31 1.01 2.23", "empty controls": "1/18 (2.51)"}
{"CDR-L1": "KSSQSMLYEERNKNSVA", "CDR-L2": "WASTRES", "CDR-L3": "QQYHRLPLS", "group": "Ctrl", "log10 Kd (nM) by replicate": "nd nd nd nd nd nd", "empty controls": "0/18"}
{"CDR-L1": "RASQSVLYESRNKNSVA", "CDR-L2": "WASTRES", "CDR-L3": "QQYKRLALS", "group": "Ctrl", "log10 Kd (nM) by replicate": "nd nd nd nd nd nd", "empty controls": "0/18"}

Repeated from above, the 2 best binders with a signal in all replicates:

{"CDR-L1": "KSSQSVLYLSGNKNSVA", "CDR-L2": "DASTREA", "CDR-L3": "QQYHRLPLS", "group": "Ctrl", "log10 Kd (nM) by replicate": "0.24 0.33 0.52 -0.23 -0.12 0.06", "empty controls": "0/18"}
{"CDR-L1": "KLSQSVIYESRNKNSVA", "CDR-L2": "WASTRES", "CDR-L3": "QQYHRLPLS", "group": "Ctrl", "log10 Kd (nM) by replicate": "0.46 0.30 0.36 0.23 0.00 -0.21", "empty controls": "1/18 (2.45)"}